Bounds are passed on as bounds.

This experiment deals with Human immunodeficiency virus type 1 protease (Human immunodeficiency virus 1, UniProt Q72874). The experiment in a line: Inhibition of HIV1 NL4-3 protease expressed in Escherichia coli TAP-106 cells using EDANS/DABCYL-labelled 10-amino acid containing protease cleavage site as substrate preincubated for 1 hr followed by substrate addition and measured for 60 mins by FRET assay.

`Cc1cccc(C)c1OCC(=O)N[C@@H](Cc1ccccc1)[C@@H](O)C[C@H](Cc1ccccc1)NC(=O)[C@H](C(C)C)N1CCCNC1=O` [LOPINAVIR]: the inhibitory constant (Ki) is < 5 pM.

One may read the Ki as the dissociation constant of the complex between target and ligand, obtained from inhibition or displacement. Lower therefore signals a stronger hold on the target.

Values taken from ChEMBL document CHEMBL4627412.
